Assay results as given in publication PMC9246766 (Pharmaceutical research, 2022).

Target: T1, OCT3 (Homo sapiens, UniProt O75751)
T1 sequence (O75751 1-556): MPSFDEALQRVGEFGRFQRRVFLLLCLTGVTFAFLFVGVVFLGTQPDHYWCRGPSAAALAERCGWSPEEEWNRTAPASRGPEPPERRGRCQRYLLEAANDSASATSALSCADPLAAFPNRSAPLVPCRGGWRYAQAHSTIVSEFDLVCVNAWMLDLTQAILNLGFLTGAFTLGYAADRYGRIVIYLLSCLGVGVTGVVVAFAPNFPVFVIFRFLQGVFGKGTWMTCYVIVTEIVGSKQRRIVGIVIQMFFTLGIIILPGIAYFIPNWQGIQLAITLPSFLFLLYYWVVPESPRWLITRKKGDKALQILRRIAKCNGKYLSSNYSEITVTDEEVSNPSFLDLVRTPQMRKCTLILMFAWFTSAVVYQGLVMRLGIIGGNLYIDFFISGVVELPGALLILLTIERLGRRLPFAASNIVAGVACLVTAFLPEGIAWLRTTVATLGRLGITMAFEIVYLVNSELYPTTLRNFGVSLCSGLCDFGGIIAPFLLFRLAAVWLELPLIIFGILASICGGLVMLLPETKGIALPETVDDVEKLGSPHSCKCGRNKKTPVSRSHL
Test: IC50 determination against OCT3-mediated ASP+ uptake in HEK-293 cells overexpressing OCT3
Assay type: cell-based

**Q.** How did the IC50 turn out when `Cc1nc2n(c(=O)c1CCN1CCC(c3noc4cc(F)ccc34)CC1)CCCC2` [risperidone] was run?
**A.** 1900 nM
